The values that follow are results of earlier work, collected in US10160755B2 (Plexxikon Inc., priority 2015, dated 2018).

The data set has as its system relapsed or chemotherapy-refractory FLT3-ITD+ AML. As to conditions: relapsed or chemotherapy-refractory FLT3-ITD+ AML patients, phase II monotherapy; cited from earlier work.

Regarding `CC(C)(C)c1cc(NC(=O)Nc2ccc(-c3cn4c(n3)sc3cc(OCCN5CCOCC5)ccc34)cc2)no1` [quizartinib], the “composite complete remission (CRc) rate” value is on record as roughly 50%.
